## AlphaSeq binding of Ab-91 heavy chain variants to a spike HR2 peptide

Values reported by Engelhart et al. 2022, doi:10.1038/s41597-022-01779-4 (FLAb copy).

Target: peptide PDVDLGDISGINAS, taken from heptad repeat 2 (HR2) of SARS-CoV-2 spike.

Each scFv is VL, three GGGGS repeats, VH, as in the parent Ab-91, and differs from it in the CDRs of the heavy chain only.
VL: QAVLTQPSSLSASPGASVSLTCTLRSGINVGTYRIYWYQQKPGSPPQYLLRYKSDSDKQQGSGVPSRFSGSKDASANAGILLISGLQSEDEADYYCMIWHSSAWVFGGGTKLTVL
VH: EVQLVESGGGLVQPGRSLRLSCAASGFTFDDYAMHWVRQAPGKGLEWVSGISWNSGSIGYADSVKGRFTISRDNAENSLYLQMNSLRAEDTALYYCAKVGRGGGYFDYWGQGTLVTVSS

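The parent was found by panning a naive human phage display library on the peptide. AAYL51 was designed without a model: most single CDR substitutions and a random sample of double and triple ones. The scFvs were displayed on barcoded MATa yeast, the peptide on MATalpha yeast. Mating (16 h, 30 °C) was followed by selection of diploids and sequencing of their barcodes. A regression on co-assayed BCL2-family reference pairs converts the normalised counts of each replicate to an apparent Kd. The assay was run in three technical replicates.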

Changes read parent residue, position, new residue, counted from the first residue of the VH shown.
Every variant below is changed at V99 of the VH (sequential numbering).
Affinities are written as log10 Kd with Kd in nM; a lower number is a better binder.
A mean of the replicates is given; it leaves out those without a signal.
An entry "not detected" has no value in the source: the pair was not observed among the diploids in any replicate. This suggests poor binding but is not conclusive.
Background: pairings of library AAYL51 with three empty control strains gave a value in 21% of cases (median 4.54, 5th percentile 3.26). Values in that range, when seen in few replicates, are hard to tell from nonspecific mating.
For reference, the parent read 1.86 as the reference entry and 0.88 as a member of this library.

changes	mean log10 Kd (nM)	detected
W53R+Y60K+V99Q	4.01	1 of 3
S63F+V99C	not detected	0 of 3
S55G+I58G+V99N	5.06	1 of 3
F27E+W53K+V99H	5.96	1 of 3
D31H+V64C+V99H	not detected	0 of 3
H35V+V99G+D107L	not detected	0 of 3
G59M+V99R+G104S	not detected	0 of 3
V99W	2.95	3 of 3
F29K+G50V+V99R	5.22	2 of 3
S63H+V99Y+G103I	not detected	0 of 3
W53I+Y60Q+V99I	4.68	2 of 3
F29R+G59E+V99L	4.51	1 of 3
S52A+V99E+G102S	1.06	3 of 3
V64F+V99A+Y105P	not detected	0 of 3
V99E+G104W+F106A	not detected	0 of 3
A33C+V99G+Y108I	5.25	3 of 3
V99L+G102N+F106V	not detected	0 of 3
H35E+V99N	5.15	2 of 3
G26M+F27Q+V99M	3.55	1 of 3
G50R+G59T+V99I	not detected	0 of 3
F29Q+V99G+G102R	not detected	0 of 3
G26S+V99T+G104K	not detected	0 of 3
G56R+K65P+V99Q	not detected	0 of 3
W53C+S55M+V99S	not detected	0 of 3
G59M+V99F+D107A	not detected	0 of 3
S57P+S63K+V99W	4.52	1 of 3
I51V+V64K+V99N	5.25	2 of 3
K65N+V99Y+D107P	3.65	3 of 3
A33D+W53C+V99F	4.98	3 of 3
M34E+H35E+V99I	not detected	0 of 3
W53R+V99G+Y105M	3.09	3 of 3
F29W+S52P+V99W	4.85	1 of 3
K65F+V99N+R101G	4.55	3 of 3
G56P+G59S+V99C	5.24	2 of 3
Y60I+V99C+R101H	not detected	0 of 3
M34L+V99W	not detected	0 of 3
A33V+Y60H+V99F	not detected	0 of 3
D62M+V99N	4.68	3 of 3
I58K+V99C+G102I	not detected	0 of 3
I58N+Y60T+V99L	not detected	0 of 3
H35I+V99H	not detected	0 of 3
G50S+D62L+V99A	not detected	0 of 3
G56I+V99W+G103Y	not detected	0 of 3
V99D+Y108H	not detected	0 of 3
G50I+K65E+V99K	not detected	0 of 3
F29K+V99K	not detected	0 of 3
D31M+V99N+R101S	2.48	3 of 3

The closing 7 entries, repeated:

| changes | mean log10 Kd (nM) | detected |
|---|---|---|
| H35I+V99H | not detected | 0 of 3 |
| G50S+D62L+V99A | not detected | 0 of 3 |
| G56I+V99W+G103Y | not detected | 0 of 3 |
| V99D+Y108H | not detected | 0 of 3 |
| G50I+K65E+V99K | not detected | 0 of 3 |
| F29K+V99K | not detected | 0 of 3 |
| D31M+V99N+R101S | 2.48 | 3 of 3 |